Source: PubChem BioAssay AID1490 (National Center for Advancing Translational Sciences (NCATS), 2009)
The list shows a part of the results, in another mix than the full data. Inconclusive results are not listed. The source made the active and inactive calls. Calls come from the whole dose curve; as a rule, active = well fitted inhibition curve with a large enough effect; inconclusive = small, poorly fitted or top-dose-only effect, or another doubt; inactive = no such curve, though single readings can be large or run the other way.

molecular target: 4'-phosphopantetheinyl transferase ffp (Bacillus subtilis) (UniProt Q9F4F7); experiment: qHTS Assay for Inhibitors of Bacillus subtilis Sfp phosphopantetheinyl transferase (PPTase); conditions: Biochemical Sfp PPTase activity;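 note: the enzyme is Sfp with the accession as filed and its product quenches rhodamine fluorescence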
Potency is the fitted concentration of half-maximal effect.

| Structure (SMILES) | Potency |
| --- | --- |
| CC[n+]1c(/C=C/N(C)c2ccccc2)oc2ccc(Cl)cc21 | active: 50.1 µM |
| CNCCCCCCCCSc1nc(C(C)C)ccc1C(=O)c1cccs1 | active: 39.8 µM |
